K data for 1 molecule are collected here from ChEMBL document CHEMBL5647699, “Discovery of a chemical probe for PRDM9” (Nat Commun, 2019).

By UniProt entry, the sequences of proteins in these tests, tags left out. Where a name states a change or a piece, a line headed by the entry shows the natural chain unless it says otherwise.
UniProt Q9NQV7: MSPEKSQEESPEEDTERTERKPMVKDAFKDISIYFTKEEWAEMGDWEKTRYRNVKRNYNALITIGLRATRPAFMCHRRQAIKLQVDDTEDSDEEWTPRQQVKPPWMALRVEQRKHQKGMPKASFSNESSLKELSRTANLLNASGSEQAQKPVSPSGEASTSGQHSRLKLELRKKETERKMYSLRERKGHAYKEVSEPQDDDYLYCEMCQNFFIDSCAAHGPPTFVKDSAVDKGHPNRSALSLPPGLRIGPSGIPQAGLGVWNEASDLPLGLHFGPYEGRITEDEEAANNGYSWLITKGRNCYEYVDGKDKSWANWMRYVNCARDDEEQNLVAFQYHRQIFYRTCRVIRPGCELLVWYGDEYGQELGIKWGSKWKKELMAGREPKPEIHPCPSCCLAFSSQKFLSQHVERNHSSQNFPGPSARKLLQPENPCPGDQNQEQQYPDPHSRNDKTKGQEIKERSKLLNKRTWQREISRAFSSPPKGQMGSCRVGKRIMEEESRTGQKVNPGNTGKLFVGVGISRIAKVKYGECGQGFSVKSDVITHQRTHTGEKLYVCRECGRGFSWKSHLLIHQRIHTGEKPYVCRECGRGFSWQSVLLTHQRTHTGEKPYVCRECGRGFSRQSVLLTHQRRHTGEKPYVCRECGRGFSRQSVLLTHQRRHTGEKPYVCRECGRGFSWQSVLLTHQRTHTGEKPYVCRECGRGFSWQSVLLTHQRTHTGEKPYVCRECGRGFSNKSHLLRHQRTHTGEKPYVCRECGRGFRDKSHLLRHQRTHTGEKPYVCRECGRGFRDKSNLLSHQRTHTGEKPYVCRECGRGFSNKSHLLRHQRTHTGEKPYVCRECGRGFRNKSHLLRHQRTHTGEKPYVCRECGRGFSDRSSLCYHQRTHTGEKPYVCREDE

This test has as its target Histone-lysine N-methyltransferase PRDM9 (Homo sapiens) (UniProt Q9NQV7). In words: Binding affinity to PRDM9 (unknown origin) (195 to 415 residues) assessed as binding rate constant (Kon) measured at 60 to 120 secs in presence of SAM by surface plasmon resonance assay. Particulars: time 60-120 sec.

Molecules are shown by their SMILES.

For `COc1cc(OC)cc(-c2noc(N3CCN(C)C4(CCN(c5ccnc(C)c5)CC4)C3)n2)c1`, the K is 1.2 10^6/M/s.
